Drawing on patent US20090318468A1, “PYRAZOLE COMPOUNDS 436” (AstraZeneca AB, priority 2008, published 2009), this text covers IC50 for one substance.

Protein sequences, listed by entry. Tags and fused reporters are not part of them.
UniProt P11712, whole entry: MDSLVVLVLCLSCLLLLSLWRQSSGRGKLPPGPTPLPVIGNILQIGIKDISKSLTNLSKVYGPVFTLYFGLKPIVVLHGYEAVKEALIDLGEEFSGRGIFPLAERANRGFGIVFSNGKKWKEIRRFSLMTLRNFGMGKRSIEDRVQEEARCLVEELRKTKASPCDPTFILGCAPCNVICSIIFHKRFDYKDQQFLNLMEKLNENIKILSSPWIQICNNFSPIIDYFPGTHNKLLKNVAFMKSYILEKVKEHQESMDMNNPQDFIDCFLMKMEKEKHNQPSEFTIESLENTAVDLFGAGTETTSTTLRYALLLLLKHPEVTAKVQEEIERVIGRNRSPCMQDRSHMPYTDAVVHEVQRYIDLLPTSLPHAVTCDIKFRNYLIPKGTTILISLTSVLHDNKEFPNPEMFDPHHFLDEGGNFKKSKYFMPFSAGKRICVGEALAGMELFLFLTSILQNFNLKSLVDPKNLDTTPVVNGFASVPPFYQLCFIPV

Broadly, the IC50 is the midpoint of a concentration-inhibition curve.

In the series the target is human cytochrome P450 (CYP) 2C9 (Homo sapiens, UniProt P11712). Nature of the series: Cytochrome P450 Inhibition Assay, CYP 2C9. The note with it: read-out: IC50 range (μM), CYP 2C9; expected IC50 range of known inhibitor (positive control). As for the experimental part:
Cytochrome P450 Inhibition Assay
Microsomal subcellular fractions prepared from Yeast cell lines expressing each human CYP isoform were used as an enzyme source in this assay. The activity of the 5 major human CYPs was determined from the biotransformation of a number of coumarin substrates to fluorescent metabolites, in the presence of NADPH. […] Stock solutions of each CYP, with its respective substrate, were prepared in phosphate buffer pH 7.4 (see Table 1) and 178 μl was added to the well of a black solid, flat bottom, 300 μl 96 well microtitre plate (Corning Costar). […] After pre-incubating at 37° C. for 5 min the reactions were started with addition of NADPH (20 μl, concentration shown in Table 1). The final solvent content in each incubation was <=2% (1% from the test compound and a maximum of 1% from the substrate). The appropriate solvent controls and substrate blanks were included in each experiment to assess control activity and identify any inherent fluorescence due to the test compounds. In addition, known inhibitors of each CYP were included as positive controls (see Table 3 for inhibitor concentrations and expected IC50 ranges). […] The plates were read on a fluorimeter (Spectrafluor Plus) at the appropriate excitation and emission wavelengths (listed in Table 2) and the percent activity, corrected for control, was plotted against the test compound concentration.

Take Sulphaphenazole [reference compound]: the concentration for half-maximal inhibition (IC50) lay in the range of 0.1 to 1 µM.
